Assay results as given in patent publication US6500222B2, “Diureides and their use” (priority 1999, dated 2002).

System: mustard seedlings (Sinapis alba, 'Maxi')
Assay: Mustard seedling test on plant tolerance, growth and yield

bis(N′-potassium sulfamate)succinic diureide
Vitality (%) 100% optimal growth 0% no growth (N fertilization 100 mg/container, DAT 9): 100% | Vitality (%) 100% optimal growth 0% no growth (N fertilization 100 mg/container, DAT 13): 50% | Vitality (%) 100% optimal growth 0% no growth (N fertilization 200 mg/container, DAT 9): 100% | Vitality (%) 100% optimal growth 0% no growth (N fertilization 200 mg/container, DAT 13): 50% | Vitality (%) 100% optimal growth 0% no growth (N fertilization 400 mg/container, DAT 9): 100% | Vitality (%) 100% optimal growth 0% no growth (N fertilization 400 mg/container, DAT 13): 50%
